Results on one substance are retold here after patent US20190031718A1.

Assay [1] addresses CBS-myoglobin. Put plainly: BLI, sensor exposed to the highest analyte concentration, then dipped into buffer with EDTA. For orientation: Biolayer interferometry detects binding as a change in optical thickness at a sensor tip.
Assay [2] has as its target CBS-myoglobin. Put plainly: BLI, biotinylated CPP-adapter on streptavidin sensors, CBS-myoglobin as analyte (1 µM to 63 nM), one-state association-then-dissociation fit.
For assay [3], the target named is CBS-myoglobin. The assay can be described thus: BLI, dissociation in buffer with EDTA.

The term Kd denotes the constant that tells how readily two partners part at equilibrium. A higher Kd goes with lower affinity. As a reminder, the koff is the first-order rate constant of dissociation. The term kon denotes a measure of how fast the partners come together. A higher kon goes with fast association. SAP-CaM: the koff (EDTA) with CBS-myoglobin [1] amounted to 0.11 s⁻¹. In the assay with CBS-myoglobin [2], this substance showed a Kd of 20.6 nM, a koff of 0.00017 s⁻¹ and a kon of 8300 M⁻¹ s⁻¹. This substance gave a koff (EDTA) in the assay with CBS-myoglobin [3] of 0.1 s⁻¹.
